# Apparent affinities of Ab-95 variants for a coronavirus HR2 peptide

From the AlphaSeq antibody data of Engelhart et al. 2022 (doi:10.1038/s41597-022-01779-4), copy in the FLAb collection.

All variants were tested on one target, the spike HR2 peptide PDVDLGDISGINAS (SARS-CoV-2).

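The parent was found by panning a naive human phage display library on the peptide. Library AAYL52 holds single substitutions and randomly drawn double and triple substitutions in the CDRs. In AlphaSeq, yeast of one mating type display the scFv and yeast of the other type display the target. Mating (16 h, 30 °C) was followed by selection of diploids and sequencing of their barcodes. Each replicate has its own calibration line, from reference interactions of the BCL2 family. There are three technical replicates.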

Each scFv is VH, three GGGGS repeats, VL, as in the parent Ab-95, and differs from it in the CDRs of the light chain only.
VH: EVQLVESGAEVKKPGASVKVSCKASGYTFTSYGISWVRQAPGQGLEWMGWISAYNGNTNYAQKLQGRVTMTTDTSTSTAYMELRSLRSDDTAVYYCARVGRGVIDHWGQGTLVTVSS
VL: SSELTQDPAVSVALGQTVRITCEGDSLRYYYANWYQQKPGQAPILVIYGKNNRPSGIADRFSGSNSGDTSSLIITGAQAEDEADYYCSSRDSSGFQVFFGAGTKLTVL

The parent's light chain CDRs are EGDSLRYYYAN, GKNNRPS, SSRDSSGFQVF; each variant's own CDRs replace them letter for letter.
All variants listed here change P54 of the VL, counted from its first residue.
Values are apparent Kd, the geometric mean of the replicates that gave a signal; lower means stronger binding.
"no signal" marks a missing value. The strain was present, yet no cells mated with the target were sequenced in any replicate, which points to weak or no binding.
Order: sorted from the lowest average up, undetected variants last.
Background: pairings of library AAYL52 with three empty control strains gave a value in 28% of cases (median 8.2 µM, 5th percentile 800 nM). Values in that range, when seen in few replicates, are hard to tell from nonspecific mating.

* EGDSLRYSYAN, GQNNRHS, SSRDSSGFQVF -> 4.4 nM (3 of 3 replicates)
* EGDSLRYGYAN, GKNNRIS, SSRDSKGFQVF -> 9.0 nM (3 of 3 replicates)
* NGDSLRYYYTN, GKNNRMS, SSRDSSGFQVF -> 45 nM (3 of 3 replicates)
* EGDSLRYYYAN, GKNNRTD, SSRDSSGFQVF -> 61 nM (3 of 3 replicates)
* EGDSLRYYYAN, GKNQRHS, SSRDSSGFQVF -> 140 nM (3 of 3 replicates)
* EGDSLRYYYAN, GKNNRES, CSRDSSGFQVP -> 230 nM (3 of 3 replicates)
* EGDSLRYYYAN, GKNNRGS, ESRDSSGFQVF -> 290 nM (3 of 3 replicates)
* EGDSLRHYYAN, GKNNRTS, SSRDSSGFEVF -> 300 nM (3 of 3 replicates)
* EGDSLEYYYAN, GKNNRRI, SSRDSSGFQVF -> 320 nM (3 of 3 replicates)
* EGDSLRYYFAN, GKNNRAS, SSRDSSGFLVF -> 370 nM (3 of 3 replicates)
* EGDSLRYYQAN, GKNPRGS, SSRDSSGFQVF -> 420 nM (3 of 3 replicates)
* EGDSLRYPYAN, GKNNRNS, SSRDASGFQVF -> 430 nM (3 of 3 replicates)
* EGDSLRYYYAN, GKNNHGS, SSNDSSGFQVF -> 590 nM (2 of 3 replicates)
* EGDSLRYYYAN, GKNNRVQ, SSRDSSGFQVF -> 840 nM (3 of 3 replicates)
* EGDSLRYYYAN, GKNNRSI, SSRDSSGFQVV -> 1.0 µM (3 of 3 replicates)
* EGDSLRYYYAN, GKNNRMS, SSFDSSQFQVF -> 1.1 µM (3 of 3 replicates)
* EGDSLRYYYAN, GKNNRGS, DSRDSSGFTVF -> 1.3 µM (1 of 3 replicates)
* EGDSLRYYYAN, GKNNRRS, SNRDSSGFQVF -> 1.4 µM (1 of 3 replicates)
* EGDSLRYYHAN, GKNNRAS, SSRDSSMFQVF -> 1.4 µM (3 of 3 replicates)
* EGGSLPYYYAN, GKNNRWS, SSRDSSGFQVF -> 1.8 µM (3 of 3 replicates)
* EGDSLRYYYAN, GKNNRSS, SSRDSSGPQVS -> 2.0 µM (1 of 3 replicates)
* EGDKLMYYYAN, GKNNRYS, SSRDSSGFQVF -> 3.1 µM (3 of 3 replicates)
* EGKSLRYYYAN, GKNNRIS, SSRDSSGFSVF -> 3.3 µM (3 of 3 replicates)
* EGDSLPYYYAN, GKNNRKS, SSRDSSGFCVF -> 3.6 µM (3 of 3 replicates)
* EGDSLRYYYAN, GKNNRGS, SSRTSYGFQVF -> 3.8 µM (3 of 3 replicates)
* EGDSLRYYYAN, NKNWRHS, SSRDSSGFQVF -> 4.5 µM (1 of 3 replicates)
* EGDSERYYYAN, GKNVRRS, SSRDSSGFQVF -> 4.9 µM (1 of 3 replicates)
* EGDELRYYYAN, GKNNRMS, SSRDSSGFQVS -> 6.6 µM (2 of 3 replicates)
* EGDSLRYYYAN, DKNNRMS, SSRDSSRFQVF -> 7.3 µM (1 of 3 replicates)
* EGDSLRYWYAN, GKNNRLS, SSRDSLGFQVF -> 7.7 µM (1 of 3 replicates)
* EGDSLRYYYAM, GKNNRGS, SSRDSPGFQVF -> 7.9 µM (2 of 3 replicates)
* EGDSLRYYYAN, GKNNRRS, SSRDLSGFNVF -> 8.1 µM (3 of 3 replicates)
* EGDSNRYYYAN, GKNNRDY, SSRDSSGFQVF -> 8.2 µM (2 of 3 replicates)
* EGDSLRYYYAN, GKNNRQS, SSRCSSGFQMF -> 8.4 µM (3 of 3 replicates)
* EGDSLRYYYAN, GKNNRES, TSRQSSGFQVF -> 9.7 µM (2 of 3 replicates)
* EGDSLRYYYAN, GKNNRAS, SSRDSSPFQVK -> 9.8 µM (3 of 3 replicates)
* EGISLRYYYAN, GKNNRHS, SSRDSSPFQVF -> 11 µM (3 of 3 replicates)
* EGDSLRPYYAN, GKNNRYS, SSRDSRGFQVF -> 11 µM (3 of 3 replicates)
* KGDSLRYYYAN, RKNNRES, SSRDSSGFQVF -> 18 µM (2 of 3 replicates)
* EGDSLRDYYAN, GKVNRDS, SSRDSSGFQVF -> 18 µM (1 of 3 replicates)
* EGDSLMYYYAN, GKNNRYS, SSRDSSGFQVM -> 19 µM (1 of 3 replicates)
* EGDSLRYYYAY, GKNNRLS, SSRMSSGFQVF -> 23 µM (2 of 3 replicates)
* EGDSLRYYYAN, GKNNRVS, KSIDSSGFQVF -> 25 µM (2 of 3 replicates)
* EGDSLRYYYAN, GKNNRTS, SSRDSSGWQPF -> 26 µM (1 of 3 replicates)
* EGDSPRYYYAN, GKNNYWS, SSRDSSGFQVF -> 48 µM (1 of 3 replicates)
* EGDSLRYYYAN, GKNTNHS, SSRDSSGFQVF -> 98 µM (2 of 3 replicates)
* EGDSLRYYYAN, GKNNRSS, SSRDSSQFQRF -> 99 µM (1 of 3 replicates)
* EGDSLRYYYAS, GKNIRCS, SSRDSSGFQVF -> 160 µM (1 of 3 replicates)
* EGDSLRYYYAF, GKNNRVS, SSDDSSGFQVF -> 390 µM (1 of 3 replicates)
* EGDSLRYYYNN, GKNNRHT, SSRDSSGFQVF -> no signal (0 of 3 replicates)
* EGDSLRYYYAN, GKNNRRS, SSRDSPGFQDF -> no signal (0 of 3 replicates)
* EGDSLRYWYAN, GKNNNCS, SSRDSSGFQVF -> no signal (0 of 3 replicates)

The first 3 variants above that were never detected:

* EGDSLRYYYNN, GKNNRHT, SSRDSSGFQVF -> no signal (0 of 3 replicates)
* EGDSLRYYYAN, GKNNRRS, SSRDSPGFQDF -> no signal (0 of 3 replicates)
* EGDSLRYWYAN, GKNNNCS, SSRDSSGFQVF -> no signal (0 of 3 replicates)